System: liver cancer cell line
Test: VEGFR2 inhibitors in combination with the SGLT1 inhibitor on the liver cancer cell line (Example 2)
Type: cell-based
Procedure: Dimethyl sulfoxide (DMSO) can dissolve formazan in cells, and its light absorption value measured at 570 nm wavelength with an enzyme-linked immunodetector can indirectly reflect the number of living cells. Cell growth was determined by 3-(4,5-dimethylthiazol-2-yl)-2,5-diphenyltetrazolium bromide (MTT) assay in a 96-well plate. Specifically, the cells were digested and counted, and then resuspended into a system containing 5000 cells per 200 μL of culture medium and seeded in each well of a 96-well plate. The next day, the medium was replaced with a medium containing different concentrations of sotagliflozin, apatinib, lenvatinib, and the composition of them. After 48 or 72 hours of incubation with the drugs, 20 μL of MTT reagent was added to each well and incubated for 2 hours. After discarding the medium, the formazan deposit in the cells was dissolved in 100 μL of DMSO. The absorbance was measured at 570 nm by a microplate reader. Samples were used in quadruplicate in each group.

Row | SMILES | tumor suppressive effect in combination with the SGLT1 inhibitor compared with single agent
1 | CNC(=O)c1cc(Oc2ccc(NC(=O)Nc3ccc(Cl)c(C(F)(F)F)c3)cc2)ccn1 [sorafenib] | better tumor suppressive effect than as a single agent
2 | CCN(CC)CCNC(=O)c1c(C)[nH]c(/C=C2\C(=O)Nc3ccc(F)cc32)c1C [sunitinib malate] | better tumor suppressive effect than as a single agent
